The record followed here is patent publication US20150368338A1 (Janssen / Centocor, published 2015).

B1: IFWM3332 (antibody, IgG1, V domains shown)
VH: EVQLVQSGAEVKKPGESLKISCKGSGYSFTSYWIGWVRQMPGKGLEWMGIIDPSDSDTRYSPSFQGQVTISADKSISTAYLQWSSLKASDTAMYYCARHPGLNWAPDFDYWGQGTLVTVSS
VL: DIQMTQSPSSLSASVGDRVTITCRASQSIANTNLNWYQQKPGKAPKLLIHWASSLQSGVPSRFSGSGSGTDFTLTISSLQPEDFATYYCQQWYDNPLTFGQGTKVEIK
B2: IFWM3421 (antibody, IgG1, V domains shown)
VH: EVQLVQSGAEVKKPGESLKISCKGSGYSFTSYWIGWVRQMPGKGLEWMGIIDPSDSDTRYSPSFQGQVTISADKSISTAYLQWSSLKASDTAMYYCARHPGLNWAPDFDYWGQGTLVTVSS
VL: DIQMTQSPSSLSASVGDRVTITCRASQSIDGFLNWYQQKPGKAPKLLIYFASSLQSGVPSRFSGSGSGTDFTLTISSLQPEDFATYYCQQSYDLPITFGQGTKVEIK
B3: IFWM3413 (antibody, IgG1, V domains shown)
VH: EVQLVQSGAEVKKPGESLKISCKGSGYSFTSYWIGWVRQMPGKGLEWMGIIDPSDSDTRYSPSFQGQVTISADKSISTAYLQWSSLKASDTAMYYCARHPGLAWAPDFDYWGQGTLVTVSS
VL: DIQMTQSPSSLSASVGDRVTITCRASQSINYLNWYQQKPGKAPKLLIYGASSLQSGVPSRFSGSGSGTDFTLTISSLQPEDFATYYCQQSHDWPITFGQGTKVEIK
notes: mAb; IgG1/kappa said of the parent and of selected mAbs; also called IFWB3148
B4: IFWM3417 (antibody, IgG1, V domains shown)
VH: EVQLVQSGAEVKKPGESLKISCKGSGYSFTSYWIGWVRQMPGKGLEWMGIIDPSDSDTRYSPSFQGQVTISADKSISTAYLQWSSLKASDTAMYYCARHPGLAWAPDFDYWGQGTLVTVSS
VL: DIQMTQSPSSLSASVGDRVTITCRASQSIANNDLNWYQQKPGKAPKLLIHWASSLQSGVPSRFSGSGSGTDFTLTISSLQPEDFATYYCQQDYDWPLTFGQGTKVEIK
notes: mAb; IgG1/kappa said of the parent and of selected mAbs; also called IFWB3152
B5: IFWM3406 (antibody, IgG1, V domains shown)
VH: EVQLVQSGAEVKKPGESLKISCKGSGYSFTSYWIGWVRQMPGKGLEWMGIIDPSDSDTRYSPSFQGQVTISADKSISTAYLQWSSLKASDTAMYYCARHPGLAWAPDFDYWGQGTLVTVSS
VL: DIQMTQSPSSLSASVGDRVTITCRASQSINNLNWYQQKPGKAPKLLIYWASSLQSGVPSRFSGSGSGTDFTLTISSLQPEDFATYYCQQGYDTPFTFGQGTKVEIK
notes: mAb; IgG1/kappa said of the parent and of selected mAbs; also called IFWB3141
B6: IFWM3415 (antibody, IgG1, V domains shown)
VH: EVQLVQSGAEVKKPGESLKISCKGSGYSFTSYWIGWVRQMPGKGLEWMGIIDPSDSDTRYSPSFQGQVTISADKSISTAYLQWSSLKASDTAMYYCARHPGLAWAPDFDYWGQGTLVTVSS
VL: DIQMTQSPSSLSASVGDRVTITCRASQSISNSNLNWYQQKPGKAPKLLIHWASSLQSGVPSRFSGSGSGTDFTLTISSLQPEDFATYYCQQWYDHPLTFGQGTKVEIK
notes: mAb; IgG1/kappa said of the parent and of selected mAbs; also called IFWB3150
B7: IFWM3409 (antibody, IgG1, V domains shown)
VH: EVQLVQSGAEVKKPGESLKISCKGSGYSFTSYWIGWVRQMPGKGLEWMGIIDPSDSDTRYSPSFQGQVTISADKSISTAYLQWSSLKASDTAMYYCARHPGLAWAPDFDYWGQGTLVTVSS
VL: DIQMTQSPSSLSASVGDRVTITCRASQSIDNSYLNWYQQKPGKAPKLLIYGASSLQSGVPSRFSGSGSGTDFTLTISSLQPEDFATYYCQQGWDWPLTFGQGTKVEIK
notes: mAb; IgG1/kappa said of the parent and of selected mAbs; also called IFWB3144
B8: IFWM3378 (antibody, IgG1, V domains shown)
VH: EVQLVQSGAEVKKPGESLKISCKGSGYSFTSYWIGWVRQMPGKGLEWMGIIDPSDSDTAYSPSFQGQVTISADKSISTAYLQWSSLKASDTAMYYCARHPGLNWAPDFDYWGQGTLVTVSS
VL: DIQMTQSPSSLSASVGDRVTITCRASQSIANNDLNWYQQKPGKAPKLLIHWASSLQSGVPSRFSGSGSGTDFTLTISSLQPEDFATYYCQQDYDWPLTFGQGTKVEIK
notes: mAb; IgG1/kappa said of the parent and of selected mAbs; also called IFWB3113

The first assay addresses T1, IFN-αB2 (human, UniProt P32881 24-189). Briefly: cell-based or functional assay.
B1: the “IC50, ISRE assay” value came to 0.327 nM. Still for that read-out and setting: under B2 stands 0.016 nM.

A further assay has as its target T1, IFN-αB2. Briefly: ProteOn SPR, cell supernatant.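 Also: each binding measurement used just a single antigen concentration.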
Turning to B3, the Kd – broadly, the constant that tells how readily two partners part at equilibrium – amounted to 0.058 nM. In the case of B4, the Kd was found to be 0.036 nM. Same read-out and setting: for B5 the value was 0.039 nM; for B6, 0.015 nM; for B7, 0.018 nM. On the same count and under the same terms, under B8 stands 0.141 nM.
